{"source": "patent US5804595A", "about": "“Kappa opioid receptor agonists” (Regents of the University of Minnesota, priority 1995, dated 1998)", "experiment": "Mouse abdominal stretch (writhing) antinociception assay, icv and iv"}
{"compound": "CN(C(=O)Cc1ccc(Cl)c(Cl)c1)[C@H](CN1CCCC1)c1cccc(NC(=O)C[C@H](N)C(=O)O)c1", "values": [{"measurement": "selectivity (iv/icv)", "setting": "Selectivity = iv/icv", "value": 56.5}, {"measurement": "icv - ED50", "setting": "writhing, mice, icv, converted from nmol/mouse with 25 g/mouse", "value": 11, "unit": "nmol/kg"}, {"measurement": "iv - ED50", "setting": "writhing, mice, iv, converted from nmol/mouse with 25 g/mouse", "value": 628, "unit": "nmol/kg"}]}
